Data as given in patent publication US4118424A, “Biodegradable insecticides” (priority 1976, dated 1978).

System: mice
Assay: Mouse toxicity, oral, Table I
Type: in vivo
Settings: oral administration
Protocol: Dianisyl-2-chloropropane ("DCP") was tested for insecticidal activities using standard methods and compared with the activities of DDT and methoxychlor. In addition, DCP was tested for mouse toxicity, fish toxicity and biodegradibility.

COc1ccc(C(c2ccc(OC)cc2)C(Cl)(Cl)Cl)cc1 [Methoxychlor, reference compound]
mouse toxicity (head is a drawing): 1000
